Reference: ChEMBL document CHEMBL6153079, “Discovery of noncovalent diaminopyrimidine-based Inhibitors for glioblastoma via a dual FAK/DNA targeting strategy” (Eur J Med Chem, 2025)

Columns and labels:
[1] = system: U-87 MG; assay: Antiproliferative activity against human U-87 MG assessed as cell viability incubated for 48 hrs by MTT assay; details: u-87mg atcc
[2] = system: U-251; assay: Antiproliferative activity against human U-251 assessed as cell viability incubated for 48 hrs by MTT assay

With `O=C(O)c1ccc(N(CCCl)CCCl)cc1` the IC50 [1] was greater than 50 µM and the IC50 [2] was greater than 50 µM.
